For 48 compounds, IC50 results are on record in patent US7893077B2, “Bisaryl-sulfonamides” (Amgen Inc., priority 2004, dated 2011).

Protein sequences, listed by entry. Tags and fused reporters are not part of them.
UniProt P37231, whole entry: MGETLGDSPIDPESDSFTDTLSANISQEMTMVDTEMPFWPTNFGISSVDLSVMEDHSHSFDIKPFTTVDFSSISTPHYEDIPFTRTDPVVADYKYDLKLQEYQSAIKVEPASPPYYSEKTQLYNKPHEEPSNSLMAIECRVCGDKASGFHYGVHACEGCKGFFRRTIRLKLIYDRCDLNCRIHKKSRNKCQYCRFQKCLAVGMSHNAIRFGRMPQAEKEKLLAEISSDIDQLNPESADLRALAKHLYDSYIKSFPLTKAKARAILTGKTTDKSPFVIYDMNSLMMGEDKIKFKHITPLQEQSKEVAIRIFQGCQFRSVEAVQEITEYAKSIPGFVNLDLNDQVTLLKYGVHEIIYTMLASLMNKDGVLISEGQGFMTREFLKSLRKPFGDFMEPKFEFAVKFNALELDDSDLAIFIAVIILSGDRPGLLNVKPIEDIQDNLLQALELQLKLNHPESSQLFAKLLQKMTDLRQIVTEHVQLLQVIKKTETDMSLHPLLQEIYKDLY

This experiment concerns the target PPARγ (Homo sapiens, UniProt P37231). In words: PPARγ ligand binding assay utilizing [3H]-BRL 49653 as the radioligand (filtration). The following applies: read-out: PPARγ Binding IC50 Filtration; concentration required to reduce by 50% the specific binding of [3H]-BRL 49653. From the text: The compounds of the present invention can be evaluated for modulation of the PPARγ receptor using assays such as those described in Jiang, et al., Nature 391:82-86 (1998), Ricote, et al., Nature 391:79-82 (1998) and Lehmann, et al., J. Biol. Chem. 270(12): 12953-12956 (1995). Alternatively, the compounds can be evaluated for their ability to displace radiolabeled BRL 49653 from a PPARγ-GST fusion protein as follows:
PPARγ-GST fusion protein (prepared according to standard procedures), [^3H]-BRL 49653 having 50 Ci/mmol specific activity, Polyfiltronics Unifilter 350 filtration plate and glutathione-Sepharose® beads (from Pharmacia: washed twice with 10× binding buffer in which BSA and DTI can be left out).
Binding buffer (10 mM Tris-HCl, pH 8.0, 50 mM KCl, 10 mM DTT, 0.02% BSA and 0.0 1% NP-40) is added in 80-μL amounts to the wells of the filtration plate. The test compound is then added in 10 μL of DMSO. The PPARγ-GST fusion protein and radiolabeled BRL compound are premixed in binding buffer containing 10 mM DTT and added in 10-μL amounts to the wells of the plate to provide final concentrations of 1 µg/well of PPARγ-GST fusion protein and 10 nM [^3H]-BRL 49653 compound. The plate is incubated for 15 min. Glutathione-agarose bead is added in 50 μL of binding buffer, and the plate is vigorously shaken for one hour. The plate is washed four times with 200 μL/well of binding buffer (without BSA and DTT). The bottom of the plate is sealed and 200 μL/well of scintillation cocktail is added. The top of the plate is then sealed and the radioactivity is determined.
IC50 values are defined as the concentration of test compounds required to reduce by 50% the specific binding of [^3H]-BRL 49653 and are represented by (+)<30 μM; (++)<10 μM; (+++)<1 μM.
Consider `CC(=O)c1cc(NS(=O)(=O)c2cc(F)ccc2F)cc(Cl)c1Oc1ccc(S(=O)(=O)N2CCOCC2)cc1`, for which the IC50 is under 10000 nM. The figure for `Cc1cc(Oc2ccc(NS(=O)(=O)c3cc(F)c(Cl)cc3F)cc2C(=O)N(C)C(C)C)ccc1S(=O)(=O)N1CCCC1` is under 10000 nM; for `CCc1cc(S(=O)(=O)N(CC)CC)ccc1Oc1c(Cl)cc(NS(=O)(=O)c2ccc(C(F)(F)F)cc2Cl)cc1Cl` it is under 1000 nM; for `CCN(CC)S(=O)(=O)c1ccc(Oc2ccc(NS(=O)(=O)c3cc(F)cc(Cl)c3C)cc2C)cc1` it is under 10000 nM.

With `Cc1cc(S(=O)(=O)Nc2ccc(Oc3ccc(S(=O)(=O)N4CCCCC4)c(C)c3)c(C(=O)NCC(C)C)c2)c(Cl)cc1Cl`, the IC50 is under 1000 nM.

On to `CC(=O)c1cc(NS(=O)(=O)c2ccccc2C#N)cc(Cl)c1Oc1ccc(S(=O)(=O)N2CCOCC2)cc1`, for which the IC50 was under 10000 nM. `CC(C)NC(=O)c1nc(NS(=O)(=O)c2ccc(Cl)cc2Cl)ccc1Sc1ccc(S(=O)(=O)N2CCCCC2)cc1` [Compound 85, 6-(2,4-Dichloro-benzenesulfonylamino)-3-[4-(piperidine-1-sulfonyl)-phenylsulfanyl]-pyridine-2-carboxylic acid isopropylamide]: the IC50 was under 1000 nM.

Take `CCN(CC)S(=O)(=O)c1ccc(Oc2c(Cl)cc(NS(=O)(=O)c3ccc(C(F)(F)F)cc3Cl)cc2Cl)c(C)c1`: the IC50 was under 1000 nM. The same measure for `CCN(CC)S(=O)(=O)c1ccc(Oc2ccc(NS(=O)(=O)c3ccc(C(F)(F)F)cc3Cl)cc2C)cc1`: under 10000 nM; for `O=S(=O)(Nc1cc(Cl)c(Sc2ccc(S(=O)(=O)N3CCCC3)cc2)c(Cl)c1)c1ccc(C(F)(F)F)cc1Cl`: under 1000 nM; for `COc1cccc(S(=O)(=O)Nc2cc(Cl)c(Oc3ccc(S(=O)(=O)N4CCOCC4)cc3)c(C(C)=O)c2)c1`: under 10000 nM. As for `CON(C)C(=O)c1cc(NS(=O)(=O)c2ccc(Cl)cc2Cl)ccc1Oc1ccc(S(=O)(=O)N2CCCCC2)cc1`, the IC50 was under 1000 nM. The figure for `CCOC(=O)c1cc(NS(=O)(=O)c2ccc(C(F)(F)F)cc2Cl)ccc1Oc1ccc(S(=O)(=O)N2CCCCC2)c(C)c1` is under 1000 nM. The figure for `CCNC(=O)c1cc(NS(=O)(=O)c2ccc(Cl)cc2Cl)ccc1Oc1ccc(S(=O)(=O)N2CCCC2)c(C)c1` is under 1000 nM; for `CCN(CC)S(=O)(=O)c1ccc(Oc2c(C)cc(NS(=O)(=O)c3cc(F)cc(Cl)c3C)cc2Cl)cc1` it is under 1000 nM.

For `CCN(CC)S(=O)(=O)c1ccc(Oc2ccc(NS(=O)(=O)c3ccc(C(F)(F)F)cc3Cl)cc2Cl)cc1`, the IC50 is under 1000 nM.

With `Cc1cc(Oc2ccc(NS(=O)(=O)c3ccc(Cl)cc3Cl)cc2C(=O)N(C)C(C)C)ccc1S(=O)(=O)N1CCCCC1`, the IC50 is under 1000 nM. The figure for `CC1CN(S(=O)(=O)c2ccc(Oc3c(Cl)cc(NS(=O)(=O)c4ccc(C(F)(F)F)cc4Cl)cc3Cl)cc2)CC(C)O1` (stereo not drawn) is under 1000 nM. The figure for `CC(=O)c1cc(NS(=O)(=O)c2c(C)cc(C)cc2C)cc(Cl)c1Oc1ccc(S(=O)(=O)N2CCOCC2)cc1` is under 10000 nM.

For `CC(=O)c1cc(NS(=O)(=O)c2c(F)cccc2F)cc(Cl)c1Oc1ccc(S(=O)(=O)N2CCOCC2)cc1`, the IC50 was under 10000 nM. The figure for `CCNC(=O)c1cc(NS(=O)(=O)c2cc(F)c(Cl)cc2F)ccc1Oc1ccc(S(=O)(=O)N2CCCC2)c(C)c1` is under 10000 nM; for `CCNC(=O)c1cc(NS(=O)(=O)c2ccc(Cl)c(C)c2Cl)ccc1Oc1ccc(S(=O)(=O)N2CCCC2)c(C)c1` it is under 1000 nM; for `CCNC(=O)c1cc(NS(=O)(=O)c2cc(C)c(Cl)cc2Cl)ccc1Oc1ccc(S(=O)(=O)N2CCCCC2)cc1` it is under 1000 nM. The same measure for `CC(=O)c1cc(NS(=O)(=O)c2cccc(Cl)c2)cc(Cl)c1Oc1ccc(S(=O)(=O)N2CCOCC2)cc1`: under 10000 nM; for `COCc1cc(NS(=O)(=O)c2ccc(Cl)cc2Cl)ccc1Oc1ccc(S(=O)(=O)N2CCOCC2)cc1`: under 1000 nM; for `CC(=O)c1cc(NS(=O)(=O)c2ccc(Cl)cc2Cl)ccc1Oc1ccc(S(=O)(=O)N2CCCC2)c(C)c1`: under 1000 nM. With `COc1ccc(Cl)cc1S(=O)(=O)Nc1cc(Cl)c(Oc2ccc(S(=O)(=O)N3CCOCC3)cc2)c(C(C)=O)c1`, the IC50 is under 1000 nM.

On to `Cc1cc(S(=O)(=O)Nc2ccc(Oc3ccc(S(=O)(=O)N4CCOCC4)cc3)c(Cl)c2)c(Cl)cc1Cl`, for which the IC50 is under 10000 nM. For the compound `CC(=O)c1cc(NS(=O)(=O)c2ccc(F)c(Cl)c2)cc(Cl)c1Oc1ccc(S(=O)(=O)N2CCOCC2)cc1`, the IC50 is under 1000 nM. The figure for `CCN(CC)S(=O)(=O)c1ccc(Oc2c(Cl)cc(NS(=O)(=O)c3ccc(OC(F)(F)F)cc3)cc2Cl)cc1` is under 1000 nM.

On to `O=S(=O)(Nc1cc(Cl)c(Oc2ccc(S(=O)(=O)N3CCCC3)cc2)c(Cl)c1)c1ccc(C(F)(F)F)cc1Cl`, for which the IC50 was under 1000 nM. The same measure for `CC(=O)c1cc(NS(=O)(=O)c2ccc(C(F)(F)F)cc2)cc(Cl)c1Oc1ccc(S(=O)(=O)N2CCOCC2)cc1`: under 1000 nM.

On to `CCCC(=O)c1cc(NS(=O)(=O)c2ccc(Cl)cc2Cl)ccc1Oc1ccc(S(=O)(=O)N2CCCC2)cc1`, for which the IC50 is under 1000 nM.

For the compound `CC(=O)c1cc(NS(=O)(=O)c2ccc(F)c(F)c2)cc(Cl)c1Oc1ccc(S(=O)(=O)N2CCOCC2)cc1`, the IC50 is under 10000 nM. Take `CC(=O)c1cc(NS(=O)(=O)c2cc(F)c(F)cc2F)cc(Cl)c1Oc1ccc(S(=O)(=O)N2CCOCC2)cc1`: the IC50 is under 1000 nM. The same measure for `O=S(=O)(Nc1cc(Cl)c(Oc2ccc(S(=O)(=O)N3CCOCC3)cc2)c(Cl)c1)c1ccc(Cl)cc1Cl`: under 1000 nM; for `Cc1cc(S(=O)(=O)Nc2cc(Cl)c(Oc3ccc(S(=O)(=O)N4CCCCC4)cc3)c(Cl)c2)c(Cl)cc1Cl`: under 1000 nM; for `Cc1cc(S(=O)(=O)Nc2cc(Cl)c(Oc3ccc(S(=O)(=O)N4CCOCC4)cc3)c(C(=O)OC(C)C)c2)c(Cl)cc1Cl`: under 1000 nM. The figure for `CC(=O)c1cc(NS(=O)(=O)c2cc(C(F)(F)F)cc(C(F)(F)F)c2)cc(Cl)c1Oc1ccc(S(=O)(=O)N2CCOCC2)cc1` is under 10000 nM.

Turning to `CCOC(=O)CCCS(=O)(=O)c1ccc(Sc2c(Cl)cc(NS(=O)(=O)c3ccc(C(F)(F)F)cc3Cl)cc2Cl)cc1`, the IC50 was under 1000 nM. The same measure for `O=S(=O)(Nc1cc(Cl)c(Oc2ccc(S(=O)(=O)N3CCCCC3)cc2)c(Cl)c1)c1ccc(Cl)cc1Cl`: under 1000 nM; for `CCOC(=O)c1cc(NS(=O)(=O)c2ccc(Cl)cc2Cl)ccc1Oc1ccc(S(=O)(=O)N2CCCCC2)c(C)c1`: under 1000 nM; for `CCNC(=O)CS(=O)(=O)c1ccc(Sc2c(Cl)cc(NS(=O)(=O)c3ccc(C(F)(F)F)cc3Cl)cc2Cl)cc1`: under 1000 nM. The same measure for `Cc1cc(S(=O)(=O)Nc2ccc(Oc3ccc(S(=O)(=O)N4CCCC4)c(C)c3)c(C(=O)N(C)C(C)C)c2)c(Cl)cc1Cl`: under 1000 nM; for `COC(=O)c1cc(NS(=O)(=O)c2ccc(C(F)(F)F)cc2Cl)cc(Cl)c1Oc1ccc(S(=O)(=O)N2CCOCC2)cc1`: under 1000 nM.

On to `CC(=O)c1cc(NS(=O)(=O)c2ccc(C#N)cc2Cl)cc(Cl)c1Oc1ccc(S(=O)(=O)N2CCOCC2)cc1`, for which the IC50 was under 1000 nM.

Turning to `CC(=O)c1cc(NS(=O)(=O)c2cc(C)c(Cl)cc2C)cc(Cl)c1Oc1ccc(S(=O)(=O)N2CCOCC2)cc1`, the IC50 is under 1000 nM. Take `CCOC(=O)c1cc(NS(=O)(=O)c2cc(C)c(Cl)cc2Cl)ccc1Oc1ccc(S(=O)(=O)N(CC)CC)c(C)c1`: the IC50 is under 1000 nM.
